Protein sequences, listed by entry. Tags and fused reporters are not part of them. Lines headed by an entry give the natural chain unless they say otherwise; changes in a name come on top.
UniProt P42338: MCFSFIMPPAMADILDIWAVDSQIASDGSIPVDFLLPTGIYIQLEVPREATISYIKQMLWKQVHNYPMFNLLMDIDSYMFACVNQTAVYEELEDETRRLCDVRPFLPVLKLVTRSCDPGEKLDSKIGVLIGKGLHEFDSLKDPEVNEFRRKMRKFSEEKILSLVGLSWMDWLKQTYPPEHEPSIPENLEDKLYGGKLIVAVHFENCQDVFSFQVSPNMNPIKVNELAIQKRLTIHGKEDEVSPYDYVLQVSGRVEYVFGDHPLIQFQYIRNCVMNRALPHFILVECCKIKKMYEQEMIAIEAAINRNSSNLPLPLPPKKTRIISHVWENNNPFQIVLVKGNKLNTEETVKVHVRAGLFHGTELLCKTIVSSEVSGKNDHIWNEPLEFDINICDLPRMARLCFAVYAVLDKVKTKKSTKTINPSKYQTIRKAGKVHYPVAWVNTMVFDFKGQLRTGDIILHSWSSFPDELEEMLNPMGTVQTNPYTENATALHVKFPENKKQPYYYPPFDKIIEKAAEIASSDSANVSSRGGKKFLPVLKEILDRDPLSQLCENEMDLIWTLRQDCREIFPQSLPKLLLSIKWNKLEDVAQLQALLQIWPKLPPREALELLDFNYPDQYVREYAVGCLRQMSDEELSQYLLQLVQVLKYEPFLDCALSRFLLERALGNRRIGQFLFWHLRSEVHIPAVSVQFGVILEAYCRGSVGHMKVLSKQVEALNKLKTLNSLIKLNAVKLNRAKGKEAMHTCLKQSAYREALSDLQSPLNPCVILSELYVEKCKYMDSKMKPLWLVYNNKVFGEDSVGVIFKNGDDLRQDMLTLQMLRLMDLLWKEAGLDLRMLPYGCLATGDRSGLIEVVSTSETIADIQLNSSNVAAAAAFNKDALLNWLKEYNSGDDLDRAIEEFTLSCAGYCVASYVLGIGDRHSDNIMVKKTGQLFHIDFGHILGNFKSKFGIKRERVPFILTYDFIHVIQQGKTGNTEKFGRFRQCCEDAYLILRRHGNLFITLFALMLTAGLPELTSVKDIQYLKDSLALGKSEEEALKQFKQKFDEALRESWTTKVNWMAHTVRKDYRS

In BindingDB's records for patent US9828378 (Intellikine, 2017):

Target: Phosphatidylinositol 4,5-bisphosphate 3-kinase catalytic subunit beta isoform (Homo sapiens, UniProt P42338)

With CC(C)n1nc(-c2cc3c(Cl)c(O)ccc3[nH]2)c2c(N)ncnc21 [US9828378, # 22] the IC50 was > 500 nM.
